{"source": "paper PMC6781469", "about": "(Journal of Enzyme Inhibition and Medicinal Chemistry, 2019)", "key": {"c-Src": {"target": "c-Src (Homo sapiens, UniProt P12931)", "experiment": "biochemical", "details": "read-out: % Inhibition c-Src"}, "CDK1/cyclin B": {"target": "CDK1/cyclin B (Homo sapiens, UniProt P06493)", "experiment": "biochemical", "details": "read-out: % Inhibition CDK1/cyclin B"}, "MTOR/FRAP1": {"target": "MTOR/FRAP1 (Homo sapiens, UniProt P42345)", "experiment": "kinase panel screen, MTOR/FRAP1", "format": "biochemical", "details": "read-out: % Inhibition MTOR/FRAP1"}, "BTK": {"target": "BTK (Homo sapiens, UniProt Q06187)", "experiment": "biochemical", "details": "read-out: % Inhibition BTK"}, "ALK": {"target": "ALK (Homo sapiens, UniProt Q9UM73)", "experiment": "biochemical", "details": "read-out: % Inhibition ALK"}, "P38a/MAPK14": {"target": "P38a/MAPK14 (Homo sapiens, UniProt Q16539)", "experiment": "biochemical", "details": "read-out: % Inhibition P38a/MAPK14"}, "KDR/VEGFR2": {"target": "KDR/VEGFR2 (Homo sapiens, UniProt P35968)", "experiment": "biochemical", "details": "read-out: % Inhibition KDR/VEGFR2"}, "FLT1/VEGFR1": {"target": "FLT1/VEGFR1 (Homo sapiens, UniProt P17948)", "experiment": "biochemical", "details": "read-out: % Inhibition FLT1/VEGFR1"}, "RIPK3": {"target": "RIPK3 (Homo sapiens, UniProt Q9Y572)", "experiment": "biochemical", "details": "read-out: % Inhibition RIPK3"}, "ERK1": {"target": "ERK1 (Homo sapiens, UniProt P27361)", "experiment": "biochemical", "details": "read-out: % Inhibition ERK1"}, "LCK": {"target": "LCK (Homo sapiens, UniProt P06239)", "experiment": "biochemical", "details": "read-out: % Inhibition LCK"}, "BRAF (V599E)": {"target": "BRAF (V599E) (Homo sapiens, UniProt P15056, V600E)", "experiment": "kinase panel screen, BRAF (V599E)", "details": "read-out: % Inhibition BRAF (V599E)"}, "JNK3": {"target": "JNK3 (Homo sapiens, UniProt P53779)", "experiment": "biochemical", "details": "read-out: % Inhibition JNK3"}, "MEK1": {"target": "MEK1 (Homo sapiens, UniProt Q02750)", "experiment": "biochemical", "details": "read-out: % Inhibition MEK1"}, "FGFR3": {"target": "T1, FGFR3 (Homo sapiens, UniProt P22607)", "T1 construct": "purchased Reaction Biology Corp. (Kinase HotSpot service)", "experiment": "kinase panel screen, FGFR3", "format": "biochemical", "details": "read-out: % Inhibition FGFR3"}, "Aurora A": {"target": "Aurora A (Homo sapiens, UniProt O14965)", "experiment": "biochemical", "details": "read-out: % Inhibition Aurora A"}, "CDK2/cyclin E": {"target": "CDK2/cyclin E (Homo sapiens, UniProt P24941)", "experiment": "biochemical", "details": "read-out: % Inhibition CDK2/cyclin E"}, "JAK3": {"target": "JAK3 (Homo sapiens, UniProt P52333)", "experiment": "kinase panel screen, JAK3", "details": "read-out: % Inhibition JAK3"}, "AKT1": {"target": "AKT1 (Homo sapiens, UniProt P31749)", "experiment": "biochemical", "details": "read-out: % Inhibition AKT1"}, "PKA": {"target": "PKA (Homo sapiens, UniProt P17612)", "experiment": "biochemical", "details": "read-out: % Inhibition PKA"}, "GSK3b": {"target": "GSK3b (Homo sapiens, UniProt P49841)", "experiment": "biochemical", "details": "read-out: % Inhibition GSK3b"}, "RON/MST1R": {"target": "RON/MST1R (Homo sapiens, UniProt Q04912)", "experiment": "biochemical", "details": "read-out: % Inhibition RON/MST1R"}, "IGF1R": {"target": "IGF1R (Homo sapiens, UniProt P08069)", "experiment": "biochemical", "details": "read-out: % Inhibition IGF1R"}, "ABL1": {"target": "ABL1 (Homo sapiens, UniProt P00519)", "experiment": "biochemical", "details": "read-out: % Inhibition ABL1"}, "LYN": {"target": "LYN (Homo sapiens, UniProt P07948)", "experiment": "biochemical", "details": "read-out: % Inhibition LYN"}, "c-Kit": {"target": "c-Kit (Homo sapiens, UniProt P10721)", "experiment": "biochemical", "details": "read-out: % Inhibition c-Kit"}, "c-MET": {"target": "c-MET (Homo sapiens, UniProt P08581)", "experiment": "biochemical", "details": "read-out: % Inhibition c-MET"}, "EGFR": {"target": "EGFR (Homo sapiens, UniProt P00533)", "experiment": "biochemical", "details": "read-out: % Inhibition EGFR"}, "PLK1": {"target": "PLK1 (Homo sapiens, UniProt P53350)", "experiment": "biochemical", "details": "read-out: % Inhibition PLK1"}, "BRAF": {"target": "BRAF (Homo sapiens, UniProt P15056)", "experiment": "kinase panel screen, BRAF", "details": "read-out: % Inhibition BRAF"}}}
{"smiles": "Cc1oncc1C(=O)Nc1ccc2nc(-c3cc(N4CCN(C)CC4)cc(C(F)(F)F)c3)[nH]c2c1", "note": "[5a, 5-methyl-N-(2-(3-(4-methylpiperazin-1-yl)-5-(trifluoromethyl)phenyl)-1H-benzo[d]imidazole-5-yl) isoxazole-4-carboxamide]", "values": [{"measurement": "inhibition at 10 µM", "setting": "c-Src", "result": 0, "unit": "%"}, {"measurement": "inhibition at 10 µM", "setting": "CDK1/cyclin B", "result": 9.31, "unit": "%"}, {"measurement": "inhibition at 10 µM", "setting": "MTOR/FRAP1", "result": 2.35, "unit": "%"}, {"measurement": "inhibition at 10 µM", "setting": "BTK", "result": 15.6, "unit": "%"}, {"measurement": "inhibition at 10 µM", "setting": "ALK", "result": 12.6, "unit": "%"}, {"measurement": "inhibition at 10 µM", "setting": "P38a/MAPK14", "result": 0, "unit": "%"}, {"measurement": "inhibition at 10 µM", "setting": "KDR/VEGFR2", "result": 13.2, "unit": "%"}, {"measurement": "inhibition at 10 µM", "setting": "FLT1/VEGFR1", "result": 12.7, "unit": "%"}, {"measurement": "inhibition at 10 µM", "setting": "RIPK3", "result": 12.7, "unit": "%"}, {"measurement": "inhibition at 10 µM", "setting": "ERK1", "result": 5.18, "unit": "%"}, {"measurement": "inhibition at 10 µM", "setting": "LCK", "result": 0.625, "unit": "%"}, {"measurement": "inhibition at 10 µM", "setting": "BRAF (V599E)", "result": 11.9, "unit": "%"}, {"measurement": "inhibition at 10 µM", "setting": "JNK3", "result": 7.12, "unit": "%"}, {"measurement": "inhibition at 10 µM", "setting": "MEK1", "result": 18.8, "unit": "%"}, {"measurement": "inhibition at 10 µM", "setting": "FGFR3", "result": 2.81, "unit": "%"}, {"measurement": "inhibition at 10 µM", "setting": "Aurora A", "result": 12.5, "unit": "%"}, {"measurement": "inhibition at 10 µM", "setting": "CDK2/cyclin E", "result": 1.78, "unit": "%"}, {"measurement": "inhibition at 10 µM", "setting": "JAK3", "result": 0, "unit": "%"}, {"measurement": "inhibition at 10 µM", "setting": "AKT1", "result": 11.9, "unit": "%"}, {"measurement": "inhibition at 10 µM", "setting": "PKA", "result": 8.46, "unit": "%"}, {"measurement": "inhibition at 10 µM", "setting": "GSK3b", "result": 3.98, "unit": "%"}, {"measurement": "inhibition at 10 µM", "setting": "RON/MST1R", "result": 0, "unit": "%"}, {"measurement": "inhibition at 10 µM", "setting": "IGF1R", "result": 7.13, "unit": "%"}, {"measurement": "inhibition at 10 µM", "setting": "ABL1", "result": 17.1, "unit": "%"}, {"measurement": "inhibition at 10 µM", "setting": "LYN", "result": 15.2, "unit": "%"}, {"measurement": "inhibition at 10 µM", "setting": "c-Kit", "result": 15.5, "unit": "%"}, {"measurement": "inhibition at 10 µM", "setting": "c-MET", "result": 9.18, "unit": "%"}, {"measurement": "inhibition at 10 µM", "setting": "EGFR", "result": 4.09, "unit": "%"}, {"measurement": "inhibition at 10 µM", "setting": "PLK1", "result": 17.4, "unit": "%"}, {"measurement": "inhibition at 10 µM", "setting": "BRAF", "result": 7.31, "unit": "%"}]}
